# AlphaSeq binding of Ab-14 heavy chain variants to a spike HR2 peptide

Target peptide (SARS-CoV-2 spike, HR2 region): PDVDLGDISGINAS

Parent scFv Ab-14: VH joined to VL by a 15-residue (Gly4Ser)3 linker. Changes lie in the heavy chain CDRs alone.
VH: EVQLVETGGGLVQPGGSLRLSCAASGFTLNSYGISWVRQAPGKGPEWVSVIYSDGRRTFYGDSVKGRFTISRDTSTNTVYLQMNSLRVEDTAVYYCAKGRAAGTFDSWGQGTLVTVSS
VL: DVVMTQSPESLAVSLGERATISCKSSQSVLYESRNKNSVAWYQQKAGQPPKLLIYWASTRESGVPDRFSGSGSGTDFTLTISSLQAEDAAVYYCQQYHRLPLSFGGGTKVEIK

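Designed CDR sequences, proposed from the first random library and measured here. Group labels follow the data file (Ctrl: baseline library sampled from a position-specific scoring matrix, with some repeated check sequences; GP: Gaussian process model; GPLM: also part of the Gaussian process libraries; HC: hill climbing; Gen: genetic algorithm; a sequence that several methods proposed may carry one label only). AlphaSeq pools MATa yeast showing the antibodies with MATalpha yeast showing the peptide. Mating (16 h, 30 °C) was followed by selection of diploids and sequencing of their barcodes. Scores were corrected for input abundance and mapped to Kd with protein pairs of known affinity run in the same pool. There are six technical replicates.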

The parent's heavy chain CDRs are GFTLNSYGIS, VIYSDGRRTFYGDSVK, GRAAGTFDS; each variant's own CDRs replace them letter for letter. Scale: log10 of Kd in nM, estimated from mating counts; low values are strong binders. The mean shown is taken over the replicates in which the pair was detected. A pair that was not seen in that replicate is written "ND"; this usually means weak binding, but a binder can also be missed. Of ten entries with the parent sequence, four were seen in most replicates (averages 0.34 to 2.37), three in one and three in none, so single entries are noisy.

CDR-H1	CDR-H2	CDR-H3	group	log10 Kd, replicates	log10 Kd (nM), mean	empty controls
GFTLNSYGIS	VIYSDGMRTFYGDSVK	GEAAGTFES	Ctrl	ND / ND / ND / ND / ND / ND	ND	0/18
GFTLNSYGIS	VIYSDGRRTFYHDSVK	VKAAGTIDS	Ctrl	ND / ND / ND / 2.67 / ND / ND	2.67	1/18 (3.69)
GFNLNSYGIS	VIYADGRRTFYGDSVK	GRAADTFDS	Ctrl	ND / ND / ND / ND / ND / ND	ND	0/18
GFSLDSYGIS	VIYSDGRRTFYGDSVK	GRAAGTFDS	Ctrl	0.43 / 1.23 / -0.08 / 0.64 / 0.04 / 0.91	0.53	0/18
GFTLNSYGIS	VIYADGRRTFYGDSVK	GRAAGTFDK	Ctrl+GPLM_Gen	0.87 / -0.39 / 0.65 / -0.33 / -0.43 / -0.26; 0.07 / 0.01 / 0.56 / 0.48 / 0.52 / 0.29	0.17	0/36
GFTLNSYGIS	VIYSDGRRTSYADSVK	GRAQGTFRS	Ctrl	ND / ND / ND / ND / ND / ND	ND	1/18 (1.78)
GFTLDSYGGS	VIYSDGRRTFYGDSVK	GRAAGQFDQ	Ctrl	ND / ND / ND / ND / ND / ND	ND	0/18
GFTLNSYGIS	VIYSDGRRTFYHDAVK	GGAAGTFDS	Ctrl	ND / ND / ND / ND / ND / 1.22	1.22	0/18
GFTLNSYGMS	VIYSDGRRTSYSDSVK	GRAAGTFDS	Ctrl	2.48 / ND / 2.54 / 2.02 / 2.95 / ND	2.50	0/18
GFTINSYGIS	VIYSDGRRTFYGDAVK	GRAAGTFKS	Ctrl	ND / ND / ND / ND / ND / ND	ND	0/18
GFTLNSYGIS	VIYSDGRRTFYRDSVK	GRAAGTFDS	Ctrl	ND / ND / ND / ND / ND / ND	ND	0/18
GFTLNSYGIS	VIYSDGRRTIYQDSVV	GRAAGTFDS	Ctrl	ND / ND / ND / ND / ND / ND	ND	0/18
GFTLNEYGIS	VIYADGRRTFYSDSVY	GRLAGSFDS	Ctrl	0.23 / -0.22 / -0.57 / 0.09 / -0.48 / -0.11	-0.18	0/18
GFTLNSYGIS	VIYSDGRRTAYQDSVK	GRAAGTFDS	Ctrl+GP_HC	ND / ND / ND / ND / ND / ND; 0.80 / 0.96 / 0.17 / 0.37 / 2.18 / 0.18	0.78	0/36
GFTLNSYGIS	VIYSDGRRTFYLDSVK	GSAKGTFDS	Ctrl	ND / ND / ND / ND / ND / ND	ND	0/18
GFTLDSYGIS	VIYSDGKRTFYGDSVK	GDAAGRFDS	Ctrl	ND / ND / ND / ND / ND / ND	ND	0/18
GFTLNSYGIS	VIYSDGKRCFYGDSVK	GRPAGTFDS	Ctrl	ND / ND / ND / ND / ND / ND	ND	2/18 (1.78)
KFTLNSYGIS	VIYSDGRRTFYGDSVK	GRAADTFDS	Ctrl	ND / ND / ND / ND / ND / ND	ND	0/18
GFTLNSYGIS	VIYSDGRRTFYADSFK	GRAAGTFDS	Ctrl	ND / ND / ND / 2.34 / ND / ND	2.34	0/18
GFTLGSYGIS	VIYSDGLRTFYGDSVK	GRAAGTFDS	Ctrl	2.08 / ND / ND / ND / 2.74 / 1.91	2.24	0/18
HFTLNSYGIS	VIYSDGERQFYGGSVK	GRAAGTFDS	Ctrl	ND / ND / ND / ND / ND / ND	ND	0/18
GETLNSYGIS	VIYSDGRRTFYSDSVK	GRAAGEFKS	Ctrl	ND / ND / ND / ND / 0.97 / ND	0.97	0/18
GFEMNSYGIS	VIYSDGRRTAYGDSVK	GRAAGTFDS	Ctrl	2.50 / 0.85 / 1.02 / 0.85 / 1.72 / 1.44	1.39	1/18 (2.27)
GFNLNSYGIS	VIYSDGRRTAYGDSVK	GFGAGYFDS	Ctrl	ND / ND / ND / ND / ND / ND	ND	0/18
GNTLNSYGIS	VIYSDGRRTFYGDSVK	GRIAGTFDS	Ctrl	ND / 1.68 / 2.22 / ND / 0.59 / 2.82	1.83	0/18
GFTINSYGIS	VIYSDGRRTMYGDRVK	GRAAGTFEL	Ctrl	ND / ND / ND / ND / ND / ND	ND	0/18
GFTINSYGSS	VIYSDGRRTFYKDSVK	GRAAQTFDS	Ctrl	ND / ND / ND / ND / ND / ND	ND	0/18
GFTLRSYGIS	VIYSDGRRTFYGDSVK	GRAAGTFDS	Ctrl	0.15 / 0.44 / -0.22 / -0.09 / -0.11 / 0.04	0.03	0/18
GFTLESYGIS	VIYSDGRRTFYGDCVK	GRAAGTFDS	Ctrl	ND / ND / ND / ND / ND / ND	ND	0/18
GFTLNSYGIS	VIYSDGRRTFYGDSVK	HRAAWTFCS	Ctrl	ND / ND / ND / ND / 0.53 / 0.06	0.29	0/18
GFTLNSYSIS	VIYSDGRRTFYHDDVK	IRAAGTFDS	Ctrl	ND / ND / ND / ND / ND / ND	ND	0/18
GFTLKSYGIS	VIYSDGRRTHYGDSVK	GRAAGTFDM	Ctrl	ND / ND / ND / ND / ND / ND	ND	0/18
GFSLNSYGIS	VIYSDGRRTFYEDSVK	GRAAGTFLS	Ctrl	0.17 / 0.95 / ND / 0.09 / -0.34 / 1.72	0.52	0/18
GFTLNDYGIS	VIYSDGRRTFYADSVK	GRAAGTFDS	Ctrl+GPLM_Gen	ND / ND / -0.31 / -0.16 / -0.59 / -0.71; 0.69 / 0.68 / 0.52 / 0.80 / 0.94 / 0.87	0.27	1/36 (2.20)
GFHLNSYGIS	VIYSDGRRTMYGDSVK	GRAAGTFDS	Ctrl	ND / 2.22 / 2.16 / 1.64 / 1.50 / 3.90	2.28	0/18
GFTLNSYGIS	VIYSDGRRTFYGDSVK	GRAAGMFFS	Ctrl	ND / ND / ND / ND / ND / ND	ND	0/18
GFTLNSYGIS	VIISDGRRTFYGGSVK	GRAAGTDNS	Ctrl	ND / ND / ND / ND / ND / ND	ND	0/18

Extract of 5 entries:

CDR-H1	CDR-H2	CDR-H3	group	log10 Kd, replicates	log10 Kd (nM), mean	empty controls
GFTLNSYGIS	VIYSDGRRTFYHDAVK	GGAAGTFDS	Ctrl	ND / ND / ND / ND / ND / 1.22	1.22	0/18
GFTLNSYGIS	VIYSDGKRCFYGDSVK	GRPAGTFDS	Ctrl	ND / ND / ND / ND / ND / ND	ND	2/18 (1.78)
GFNLNSYGIS	VIYADGRRTFYGDSVK	GRAADTFDS	Ctrl	ND / ND / ND / ND / ND / ND	ND	0/18
GETLNSYGIS	VIYSDGRRTFYSDSVK	GRAAGEFKS	Ctrl	ND / ND / ND / ND / 0.97 / ND	0.97	0/18
GFTLNSYGIS	VIYADGRRTFYGDSVK	GRAAGTFDK	Ctrl+GPLM_Gen	0.87 / -0.39 / 0.65 / -0.33 / -0.43 / -0.26; 0.07 / 0.01 / 0.56 / 0.48 / 0.52 / 0.29	0.17	0/36

Some sequences occur more than once in the pool; their replicates are listed entry by entry, parted by semicolons. The authors' rule: three or more of the six replicates give a measured affinity, fewer mean a poor binder. The range of this assay differs from that of the first round, and the authors advise against merging the two. Nonspecific signal, from three strains lacking the peptide, appeared in 1% of pairings of all heavy chain designs, centred on 2.08 (5% of these signals below 0.84); values are not corrected for it. For each scFv, signals with the empty controls are counted beside the result, with their mean in brackets.

Source: Li et al. 2023 (doi:10.1038/s41467-023-39022-2), MIT Lincoln Laboratory and A-Alpha Bio; data file from the FLAb repository.